Earlier results as cited in article PMC7471432 (Acta Pharmacologica Sinica, 2020).

What was measured:
[1] = test system: locomotor activity; conditions: as high as 60 mg/kg; cited from earlier work
[2] = cited from earlier work

## Geissoschizine methyl ether [GM]
[1]
  decrease in locomotor activity: no significant decrease
[2]
  blood–brain barrier permeability rate relative to rhynchophylline: nearly five fold higher
